Our source for the IC50 values is US20240376091A1, “THIADIAZOLEAMIDE DERIVATIVES AND THEIR APPLICATIONS” (ZHEJIANG UNIVERSITY, priority 2021, published 2024).

Chains of the proteins cited; added tags and fusions are not shown.
UniProt P10275, whole entry T878A: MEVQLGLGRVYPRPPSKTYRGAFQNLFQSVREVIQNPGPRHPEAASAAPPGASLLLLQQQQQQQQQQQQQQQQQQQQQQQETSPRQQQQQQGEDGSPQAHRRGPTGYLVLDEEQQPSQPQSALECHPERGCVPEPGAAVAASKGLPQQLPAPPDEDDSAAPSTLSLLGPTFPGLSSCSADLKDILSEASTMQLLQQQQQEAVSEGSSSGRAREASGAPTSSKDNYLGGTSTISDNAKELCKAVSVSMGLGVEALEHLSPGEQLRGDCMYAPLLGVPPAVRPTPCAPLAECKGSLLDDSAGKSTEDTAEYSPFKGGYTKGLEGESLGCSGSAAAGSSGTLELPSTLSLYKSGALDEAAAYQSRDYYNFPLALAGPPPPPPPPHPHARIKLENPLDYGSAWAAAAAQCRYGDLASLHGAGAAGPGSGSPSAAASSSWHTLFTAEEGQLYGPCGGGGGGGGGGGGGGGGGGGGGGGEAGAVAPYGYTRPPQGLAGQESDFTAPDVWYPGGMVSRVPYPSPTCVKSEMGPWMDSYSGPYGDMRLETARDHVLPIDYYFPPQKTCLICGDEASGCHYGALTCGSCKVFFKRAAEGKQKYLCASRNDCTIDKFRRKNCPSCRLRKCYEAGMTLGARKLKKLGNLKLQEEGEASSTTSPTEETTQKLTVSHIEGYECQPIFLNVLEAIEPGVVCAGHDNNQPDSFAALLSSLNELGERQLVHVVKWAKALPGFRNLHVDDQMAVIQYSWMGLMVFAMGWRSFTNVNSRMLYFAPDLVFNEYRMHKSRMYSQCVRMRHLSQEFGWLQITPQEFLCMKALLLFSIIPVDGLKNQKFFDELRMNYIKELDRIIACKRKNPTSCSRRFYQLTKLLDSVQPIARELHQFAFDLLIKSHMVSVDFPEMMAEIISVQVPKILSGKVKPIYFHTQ

The structures appear in SMILES notation.

This test has as its target AR (Homo sapiens, UniProt P10275, T878A). Put plainly: AR transcriptional activity, LNCaP-ARR2PB-eGFP reporter cells. Format: cell-based. The settings on record: read-out: IC50 AR transcriptional activities, 5 nM DHT, 72 hours.

With `Cc1oc(-c2cccc(C(F)(F)F)c2)cc1C(=O)Nc1nc(CN2CCCCC2)ns1`, the IC50 turned out to be 290 nM.
